These results are taken from the RepoRT retention time repository (doi:10.1021/acs.analchem.2c02893).

What all share (conditions): stereoisomer not certain
Data set [1] in a line: RP, Thermo Scientific Acclaim RSLC 120 C18, 100 × 2.1 mm, 2.2 µm, 30 °C, 0.2 mL/min, estimated dead time 1.1 min; A: 90% water + 10% methanol + 0.01% formic acid + 5 mM ammonium formate, pH 3.61; B: methanol + 0.01% formic acid + 5 mM ammonium formate, pH 3.61; gradient (min/%B) 0/1 1/1 2/39 13/99.9 15/99.9 15.1/1 20.1/1.
Data set [2] in a line: RP, Thermo Scientific Acclaim RSLC 120 C18, 100 × 2.1 mm, 2.2 µm, 30 °C, 0.2 mL/min, estimated dead time 1.1 min; A: water + 0.1% formic acid, pH 2.6; B: methanol + 0.1% formic acid, pH 2.6; gradient (min/%B) 0/10 4/50 17/95 25/95 25.1/10 30/10.
A short description of data set [3]: RP, Waters ACQUITY UPLC BEH C18, 100 × 2.1 mm, 1.7 µm, 35 °C, 0.35 mL/min, estimated dead time 0.63 min; A: water + 0.01% formic acid + 5 mM ammonium formate, pH 3.71; B: acetonitrile + 0.01% formic acid, pH 3.71; gradient (min/%B) 0/5 0.5/5 16/95 16.1/99 19/99 19.1/5 21/5.
A short description of data set [4]: RP, Waters ACQUITY UPLC BEH C18, 100 × 2.1 mm, 1.7 µm, 30 °C, 0.35 mL/min, estimated dead time 0.63 min; A: water + 0.01% formic acid + 5 mM ammonium formate, pH 3.71; B: acetonitrile + 0.01% formic acid, pH 3.71; gradient (min/%B) 0/10 3/10 22/100 30/100 30.1/10 40/10.

For the molecule `CCOP(=S)(OCC)Oc1ncn(-c2ccccc2)n1` [Triazophos], the LC retention time in data set [1] was 9.9 min.
On to `Clc1ccccc1N1CCNCC1` [Piperazine-o-Chlorophenyl], for which, in data set [1], the LC retention time was 5.08 min.
On to `OCCOCCOCCOCCO` [Tetraethylene glycol], for which the LC retention time was 3.14 min in data set [2], 1.56 min in data set [3] and 1.16 min in data set [4].
